## Apparent affinities of Ab-14 variants for a coronavirus HR2 peptide

Target peptide (SARS-CoV-2 spike, HR2 region): PDVDLGDISGINAS

The variants keep the light chain, the linker and the frameworks of Ab-14 (scFv order VH, a (GGGGS)3 linker, VL).
VH: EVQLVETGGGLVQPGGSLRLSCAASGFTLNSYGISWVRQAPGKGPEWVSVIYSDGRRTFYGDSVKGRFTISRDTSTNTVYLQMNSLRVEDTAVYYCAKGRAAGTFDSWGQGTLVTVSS
VL: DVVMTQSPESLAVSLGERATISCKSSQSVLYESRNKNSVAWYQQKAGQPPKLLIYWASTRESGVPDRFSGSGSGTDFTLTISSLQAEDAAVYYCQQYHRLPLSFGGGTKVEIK

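The starting antibody came from a phage panning campaign against this peptide. AAYL49 was designed without a model: most single CDR substitutions and a random sample of double and triple ones. The assay is AlphaSeq: two haploid yeast populations carry antibody and antigen on their surface. The frequency of each diploid, read from paired DNA barcodes, reflects how well the two displayed proteins bind. Scores were corrected for input abundance and mapped to Kd with protein pairs of known affinity run in the same pool. Each pool was mated in three replicate cultures.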

Sequences are complete VH domains. Values are log10 of the apparent Kd in nM; lower means stronger binding. "ND" marks a missing value. The strain was present, yet no cells mated with the target were sequenced in that replicate, which points to weak or no binding. In this assay the parent's reference entry averaged 0.65; its copy inside this library read 4.11 (one replicate of three). Nonspecific signal, from three strains lacking the peptide, appeared in 15% of pairings of library AAYL49, centred on 4.06 (5% of these signals below 2.83); values are not corrected for it. Also given: how often the same scFv was detected with the empty control strains, with their mean in brackets.

VH	log10 Kd, replicates	control signals
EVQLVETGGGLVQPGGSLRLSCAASGFTLNDYGISWVRQAPGKGPEWVSVIYSDGRRTIYGDSVKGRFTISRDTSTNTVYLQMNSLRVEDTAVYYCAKGRALGTFDSWGQGTLVTVSS	ND / ND / ND	0/9
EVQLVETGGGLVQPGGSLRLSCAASGFTLNSAGISWVRQAPGKGPEWVSVIYSLGDRTFYGDSVKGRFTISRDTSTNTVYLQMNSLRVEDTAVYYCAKGRAAGTFDSWGQGTLVTVSS	4.15 / 4.85 / ND	1/9 (3.50)
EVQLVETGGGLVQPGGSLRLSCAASGFTQNSYGISWVRQAPGKGPEWVSVIYSDGRRTFYMDSVKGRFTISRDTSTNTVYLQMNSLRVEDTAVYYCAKGRAAPTFDSWGQGTLVTVSS	ND / ND / ND	0/9
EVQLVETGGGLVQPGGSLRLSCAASGFTLNYYGISWVRQAPGKGPEWVSVYYSDGRRTFYGDVVKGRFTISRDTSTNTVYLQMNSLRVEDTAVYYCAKGRAAGTFDSWGQGTLVTVSS	ND / ND / ND	1/9 (3.60)
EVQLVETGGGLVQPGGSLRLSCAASGFTLNSYGPMWVRQAPGKGPEWVSVIYSDGRRTFYGHSVKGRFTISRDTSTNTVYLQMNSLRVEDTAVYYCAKGRAAGTFDSWGQGTLVTVSS	4.41 / ND / ND	5/9 (4.09)
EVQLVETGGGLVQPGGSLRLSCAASGFTLNSYGIVWVRQAPGKGPEWVSVIYSDGRATFYGDSVKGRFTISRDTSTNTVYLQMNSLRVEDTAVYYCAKGRAAGTFDSWGQGTLVTVSS	2.51 / ND / ND	0/9
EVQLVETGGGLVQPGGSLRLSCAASGFTLNAYGISWVRQAPGKGPEWVSVIRSDGRRVFYGDSVKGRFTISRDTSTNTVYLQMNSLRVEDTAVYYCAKGRAAGTFDSWGQGTLVTVSS	ND / ND / ND	1/9 (2.31)
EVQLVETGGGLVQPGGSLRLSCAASGFTLNSYGISWVRQAPGKGPEWVSVIYSDGRRGFYGDSVKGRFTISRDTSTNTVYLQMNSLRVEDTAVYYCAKGRAAGTFDSWGQGTLVTVSS	ND / ND / 2.18	0/9
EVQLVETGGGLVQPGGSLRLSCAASGFTLNSYGISWVRQAPGKGPEWVSVIYSDGRRTFYGDSVKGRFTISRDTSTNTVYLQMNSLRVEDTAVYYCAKGRFAGFFDSWGQGTLVTVSS	ND / ND / ND	0/9
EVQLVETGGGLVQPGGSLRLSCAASGFTLNSYGILWVRQAPGKGPEWVSVIYSWGRRTFCGDSVKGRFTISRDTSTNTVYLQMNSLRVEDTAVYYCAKGRAAGTFDSWGQGTLVTVSS	ND / ND / ND	0/9
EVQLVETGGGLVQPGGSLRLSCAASGFTLNSYGISWVRQAPGKGPEWVSVIYGDGRMTFYGDSVKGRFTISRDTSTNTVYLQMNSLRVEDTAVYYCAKGPAAGTFDSWGQGTLVTVSS	5.20 / ND / ND	2/9 (3.78)
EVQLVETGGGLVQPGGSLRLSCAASGFTLNSYGISWVRQAPGKGPEWVSVIYKDGRRTFYGDSVKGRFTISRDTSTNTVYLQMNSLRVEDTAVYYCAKGRALGTFDLWGQGTLVTVSS	5.28 / 3.69 / ND	4/9 (4.21)
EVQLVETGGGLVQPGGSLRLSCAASGFTLNSYGISWVRQAPGKGPEWVSVIYSDGRQTFYGDSVKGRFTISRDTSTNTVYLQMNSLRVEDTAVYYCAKGRAAGTFFSWGQGTLVTVSS	4.47 / 3.52 / ND	2/9 (4.10)
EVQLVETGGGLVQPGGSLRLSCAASGFTLNSYGISWVRQAPGKGPEWVSVIYSDGRRSFYGDSVKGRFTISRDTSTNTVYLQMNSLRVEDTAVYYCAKGRAAGTEDSWGQGTLVTVSS	2.56 / 2.17 / 2.36	1/9 (5.36)
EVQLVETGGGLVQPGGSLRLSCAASGFTLNSWGISWVRQAPGKGPEWVSVIYSDGRRTFYGDSVKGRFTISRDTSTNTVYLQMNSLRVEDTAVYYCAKGRAFGTYDSWGQGTLVTVSS	ND / ND / ND	0/9
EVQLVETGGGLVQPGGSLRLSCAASGFTLNSYGISWVRQAPGKGPEWVSVTRSDGRRTFYGDSVKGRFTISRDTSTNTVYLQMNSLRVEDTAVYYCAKGRAAKTFDSWGQGTLVTVSS	5.50 / 5.18 / 6.52	5/9 (4.53)
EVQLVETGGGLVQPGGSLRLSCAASGFTANSYGISWVRQAPGKGPEWVSVIYSDGRRTFYGDSVQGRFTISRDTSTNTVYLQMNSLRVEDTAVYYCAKGRAQGTFDSWGQGTLVTVSS	ND / 3.01 / ND	0/9
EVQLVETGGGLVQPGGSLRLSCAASGFTSNLYGISWVRQAPGKGPEWVSVIYSVGRRTFYGDSVKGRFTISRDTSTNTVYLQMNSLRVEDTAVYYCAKGRAAGTFDSWGQGTLVTVSS	4.43 / 4.32 / 4.62	3/9 (3.91)
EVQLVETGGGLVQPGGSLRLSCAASGFTLNSYDISWVRQAPGKGPEWVSVIYSDGYRTFYGDSVKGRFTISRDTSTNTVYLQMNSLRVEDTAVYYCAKGRAAGTFDDWGQGTLVTVSS	ND / ND / 5.59	4/9 (3.98)

The first 3 variants above that were never detected:

VH,"log10 Kd, replicates",control signals
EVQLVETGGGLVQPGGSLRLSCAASGFTLNDYGISWVRQAPGKGPEWVSVIYSDGRRTIYGDSVKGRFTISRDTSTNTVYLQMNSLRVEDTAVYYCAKGRALGTFDSWGQGTLVTVSS,ND / ND / ND,0/9
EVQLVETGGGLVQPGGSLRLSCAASGFTQNSYGISWVRQAPGKGPEWVSVIYSDGRRTFYMDSVKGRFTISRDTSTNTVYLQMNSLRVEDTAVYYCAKGRAAPTFDSWGQGTLVTVSS,ND / ND / ND,0/9
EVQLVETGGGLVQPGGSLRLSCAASGFTLNYYGISWVRQAPGKGPEWVSVYYSDGRRTFYGDVVKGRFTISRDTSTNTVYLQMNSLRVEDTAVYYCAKGRAAGTFDSWGQGTLVTVSS,ND / ND / ND,1/9 (3.60)

Reference: Engelhart et al. 2022, doi:10.1038/s41597-022-01779-4. File: FLAb, binding data.